# Measurements taken from publication PMC11431963 (International Journal of Molecular Sciences, 2024).
# The chains behind the UniProt entries cited, without tags or fusion partners. Where a name states a change or a piece, a line headed by the entry shows the natural chain unless it says otherwise.
# UniProt Q9UNQ0: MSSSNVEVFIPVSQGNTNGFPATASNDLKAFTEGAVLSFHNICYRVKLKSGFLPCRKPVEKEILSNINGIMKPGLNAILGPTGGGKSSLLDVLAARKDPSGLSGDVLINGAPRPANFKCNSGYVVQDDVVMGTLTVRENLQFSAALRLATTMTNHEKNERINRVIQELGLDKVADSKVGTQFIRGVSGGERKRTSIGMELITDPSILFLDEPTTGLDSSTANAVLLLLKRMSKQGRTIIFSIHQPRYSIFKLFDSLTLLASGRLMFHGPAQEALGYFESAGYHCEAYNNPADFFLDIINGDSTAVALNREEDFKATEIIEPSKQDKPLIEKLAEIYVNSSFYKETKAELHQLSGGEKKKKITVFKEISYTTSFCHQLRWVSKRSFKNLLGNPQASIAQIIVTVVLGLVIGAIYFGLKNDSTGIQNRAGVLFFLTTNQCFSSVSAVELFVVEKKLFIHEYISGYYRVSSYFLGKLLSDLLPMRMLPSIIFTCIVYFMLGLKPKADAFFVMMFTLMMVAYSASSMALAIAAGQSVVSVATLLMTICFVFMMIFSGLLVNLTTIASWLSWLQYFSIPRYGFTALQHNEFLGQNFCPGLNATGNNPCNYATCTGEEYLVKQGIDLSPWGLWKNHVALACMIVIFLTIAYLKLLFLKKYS
# Several values for one entry are separate records, joined by “and”; a condition that tells them apart may be missing. Equal entries are not always repeated. Where two headings read alike, the source gives them in different places.
# Columns and labels:
# [1] = Transepithelial transport assay in parental MDCK-II cells; assay type: in vitro ADME, canine; settings: dog, read-out: Relative efflux transport ratio (BA/AB) at 4 h
# Method: (§1) For in vitro assays, the polarized cell line Madin-Darby canine kidney (MDCK-II) and their murine Abcg2 and human ABCG2 transduced subclones, which were previously generated and provided by A.H. Schinkel from the Netherlands Cancer Institute (Amsterdam, The Netherlands), were used.
# (§2) Transcellular transport assays were performed as previously described, with minor modifications (Figure S1). Transduced MDCK-II cells were seeded as a monolayer on microporous membrane filters (3.0 μm pore size, 24 mm diameter; Transwell® 3414; Costar, Corning, NY, USA) at a density of 1.0 x 10^6 cells/well. Cells were grown for three days with daily medium replacement. […]
# (§3) (to verify that the potential transport was specifically due to ABCG2). […] All samples were stored at −20 °C until being analyzed by high-performance liquid chromatography (HPLC), as described below.
# Lumichrome appearance in the opposite compartment is presented as the fraction of total compound added at the beginning of the experiment and expressed as percentage. The relative efflux transport ratio was calculated as the basal to apical directed transport percentage divided by the apical to basal directed transport percentage at 4 h.
# [2] = 10 mg/kg intraperitoneal, 30 min
# Text: (§4) Animals were handled according to institutional and ARRIVE guidelines complying with European legislation (2010/63/EU). Experimental procedures were approved by the Animal Care and Use Committee of the University of León and the Junta de Castilla y León (ULE_010_2021). Abcg2^-/- and wild-type mice were used, all of >99% FVB/N genetic background, generated and kindly supplied by A. H. Schinkel (The Netherlands Cancer Institute).
# (§5) All animals, which were aged from 9 to 14 weeks and weighed 30 g, were kept in a temperature-controlled environment with a cycle of 12 h of light and 12 h of darkness and received a standard diet and water ad libitum.
# Pups of approximately 10 days old were separated from their mothers four hours before the onset of the experiment. […] Milk secretion was stimulated by oxytocin (200 μL of a 1 UI/mL solution), subcutaneously injected to lactating mice 10 min before sample collection. […] Animals were euthanized by cervical dislocation at the end of the experiment. Four to five animals were used for each group.
# Heparinized blood samples were centrifuged immediately at 3000× g for 15 min to obtain plasma. Milk and plasma were also stored at −20 °C until HPLC analysis.
# (§6) Tissue samples were homogenized with a mixture of 50% water:50% methanol with 0.5% HCl; 1 mL of solution per 0.1 g of organ was used. To each 100 µL of plasma, milk or tissue homogenate, 10 µL of an albendazole-2-aminosulfone solution (100 µg/mL) was added as an internal standard and 400 µL of acetonitrile was also added in order to precipitate proteins. After 10 min of being horizontally vortexed, samples were centrifuged at 10,500× g for 10 min at 4 °C. Supernatants were evaporated to dryness at 40 °C under a stream of nitrogen. Samples were reconstituted in 100 µL of cold methanol and injected into the HPLC system. However, samples for in vitro assays were directly injected into the HPLC system.
# The chromatographic system used for sample analysis consisted of a Waters 2695 separation module and a Waters 2998 UV photodiode array detector. Separation of samples was performed on an analytical reversed-phase column (5 µm particle size, 250 × 4.6 mm, EVO C18 100 Å, Phenomenex®, Torrance, CA, USA). The mobile phase used for in vitro samples was trifluoroacetic acid 0.04%:methanol (40:60), whereas for in vivo samples, it was ammonium acetate 25 mM (pH 5):acetonitrile (85:15). In both cases, the flow rate was set to 1.00 mL/min and UV absorbance was measured at 260.3 nm.
# ABCG2 (BCRP) [3] = target: ABCG2 (BCRP) (Homo sapiens, UniProt Q9UNQ0); assay: Transepithelial transport assay in MDCK-II cells transduced with human ABCG2; assay type: in vitro ADME; settings: read-out: Relative efflux transport ratio (BA/AB) at 4 h
# Method: as §1, §2, §3
# (§7) The relative efflux transport ratio was calculated as the basal to apical directed transport percentage divided by the apical to basal directed transport percentage at 4 h. […]
# (§8) The chromatographic system used for sample analysis consisted of a Waters 2695 separation module and a Waters 2998 UV photodiode array detector. […] In both cases, the flow rate was set to 1.00 mL/min and UV absorbance was measured at 260.3 nm.
# [4] = Plasma levels in wild-type and Abcg2-/- male mice after intraperitoneal administration; settings: 10 mg/kg intraperitoneal
# Text: as §4, §5
# Blood samples were collected at different time points (5, 10, 20, 30, 45, 60, 90 and 120 min) by cardiac puncture under anesthesia with isoflurane. Organs were harvested at the 60 min time point. All animals were euthanized by cervical dislocation at the end of the experimental procedure. Heparinized blood samples were centrifuged immediately at 3000× g for 15 min. Plasma and organs were stored at −20 °C until HPLC analysis. Three to ten animals were used for each time point. […]
# as §8
# [5] = Tissue distribution in wild-type and Abcg2-/- male mice; settings: 10 mg/kg intraperitoneal, 60 min
# Text: as §4, §5
# Blood samples were collected at different time points (5, 10, 20, 30, 45, 60, 90 and 120 min) by cardiac puncture under anesthesia with isoflurane. Organs were harvested at the 60 min time point. All animals were euthanized by cervical dislocation at the end of the experimental procedure. Heparinized blood samples were centrifuged immediately at 3000× g for 15 min. Plasma and organs were stored at −20 °C until HPLC analysis. Three to ten animals were used for each time point.
# as §6, §8
# Abcg2 (BCRP) [6] = target: T1, Abcg2 (BCRP) (Mus musculus, UniProt Q7TMS5); assay: Transepithelial transport assay in MDCK-II cells transduced with murine Abcg2; assay type: in vitro ADME; settings: read-out: Relative efflux transport ratio (BA/AB) at 4 h
# T1 sequence (Q7TMS5 1-657): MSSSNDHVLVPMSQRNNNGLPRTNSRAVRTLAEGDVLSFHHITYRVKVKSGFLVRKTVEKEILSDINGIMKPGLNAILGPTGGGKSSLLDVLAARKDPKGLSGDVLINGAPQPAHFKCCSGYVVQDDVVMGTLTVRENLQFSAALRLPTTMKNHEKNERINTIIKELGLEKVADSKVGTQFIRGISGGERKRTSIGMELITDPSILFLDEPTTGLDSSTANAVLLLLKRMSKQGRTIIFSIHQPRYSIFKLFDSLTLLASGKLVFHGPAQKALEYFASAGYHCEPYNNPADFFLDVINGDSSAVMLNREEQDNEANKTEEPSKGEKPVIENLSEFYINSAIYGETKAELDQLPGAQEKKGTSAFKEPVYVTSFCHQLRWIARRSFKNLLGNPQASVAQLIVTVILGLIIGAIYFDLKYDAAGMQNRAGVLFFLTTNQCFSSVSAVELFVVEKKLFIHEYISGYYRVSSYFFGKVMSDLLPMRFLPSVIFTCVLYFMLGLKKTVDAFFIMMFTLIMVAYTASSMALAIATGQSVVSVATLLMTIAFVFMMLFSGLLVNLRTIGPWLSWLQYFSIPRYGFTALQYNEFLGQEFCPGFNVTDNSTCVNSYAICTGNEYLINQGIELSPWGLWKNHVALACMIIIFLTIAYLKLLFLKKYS
# Method: as §1, §2, §3, §7, §8
compound,measurement,setting,value
Cc1cc2nc3[nH]c(=O)[nH]c(=O)c3nc2cc1C [lumichrome],"efflux ratio at 4 h, 10 µM",[1],0.85 ± 0.13
same,"efflux ratio at 4 h, 10 µM",[1]; with Ko143 1 µM,0.95 ± 0.03
same,Milk-to-plasma ratio,[2]; Abcg2-/- lactating female mice,1.51 ± 0.35 µg/mL
same,"Accumulation in milk, wild-type versus Abcg2-/-",[2]; lactating female mice,4.1 fold
same,"Milk-to-plasma ratio, wild-type versus Abcg2-/-",[2]; lactating female mice,~3.7 fold
same,Milk-to-plasma ratio,[2]; wild-type lactating female mice,5.54 ± 1.84 µg/mL
same,"efflux ratio at 4 h, 10 µM",ABCG2 (BCRP) [3],2.57 ± 0.25
same,"efflux ratio at 4 h, 10 µM",ABCG2 (BCRP) [3]; with Ko143 1 µM,1.08 ± 0.08
same,"Plasma AUC 20–120 min, Abcg2-/- versus wild-type",[4]; 10 mg/kg,~2 fold and 1.8 fold
same,"Plasma levels, Abcg2-/- versus wild-type",[4]; 60 min,2.1 fold
same,"Accumulation in liver, Abcg2-/- versus wild-type",[5],2.3 fold
same,"Accumulation in testis, Abcg2-/- versus wild-type",[5],2.3 fold
same,"Concentration in small intestine content, wild-type versus Abcg2-/-",[5],2.7 fold
same,"efflux ratio at 4 h, 10 µM",Abcg2 (BCRP) [6],13.8 ± 3.25
same,"efflux ratio at 4 h, 10 µM",Abcg2 (BCRP) [6]; with Ko143 1 µM,1.03 ± 0.04
